Assay results: patent US20210101932A1 (Bicycle, published 2021)

Protein sequences, listed by entry. Tags and fused reporters are not part of them. Residues count along the entry.
UniProt Q9NZQ7, 19-290: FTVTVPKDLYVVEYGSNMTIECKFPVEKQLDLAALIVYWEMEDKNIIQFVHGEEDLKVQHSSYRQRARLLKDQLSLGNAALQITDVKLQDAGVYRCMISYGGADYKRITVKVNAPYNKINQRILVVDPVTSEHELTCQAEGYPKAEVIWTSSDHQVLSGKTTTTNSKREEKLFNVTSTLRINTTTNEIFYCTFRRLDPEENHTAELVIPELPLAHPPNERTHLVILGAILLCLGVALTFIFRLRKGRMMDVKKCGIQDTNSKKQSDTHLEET

B1: BCY10939 (peptide)
peptide: SDKCSAGWLTMCKQLNLCPSH
modifications: N-terminal [Ac]; C-terminal -COOH; Ci, Cii, Ciii cyclised on TATA
B2: BCY10467 (peptide)
peptide: SDKCSAGWLTMCKQLNLCPSH
modifications: N-terminal [Ac]; Ci, Cii, Ciii cyclised on TATA
B3: BCY528 (peptide)
peptide: ACSAEWRNMCVQLDLCA
modifications: Ci, Cii, Ciii cyclised on TATA
notes: also called 73-14-01-N001
B4: BCY531 (peptide)
peptide: ACSESWSAMCASLGLCA
modifications: Ci, Cii, Ciii cyclised on TATA
notes: also called 73-14-04-N001
B5: BCY527 (peptide)
peptide: ACSESWSNMCVSLGLCA
modifications: Ci, Cii, Ciii cyclised on TATA
notes: also called 73-14-00-N002
B6: BCY532 (peptide)
peptide: ACSESWSNMCKSLGLCA
modifications: Ci, Cii, Ciii cyclised on TATA
notes: also called 73-14-05-N001
B7: BCY529 (peptide)
peptide: ACSASWSNMCVELGLCA
modifications: Ci, Cii, Ciii cyclised on TATA
notes: also called 73-14-02-N001
B8: BCY10943 (peptide)
peptide: SDKCSAGWLTMCQKLHLCPSH
modifications: N-terminal [Ac]; Ci, Cii, Ciii cyclised on TATA
B9: BCY11830 (peptide)
peptide: SDKCSAGWLTMCLKLHLCPSH
modifications: N-terminal Ac; Ci, Cii, Ciii cyclised on TATA
B10: BCY10935 (peptide)
peptide: SDKCSAGWLTMCKQLNLCP
modifications: N-terminal [Ac]; Ci, Cii, Ciii cyclised on TATA
B11: BCY10936 (peptide)
peptide: SDKCSAGWLTMCKQLNLCPS
modifications: N-terminal [Ac]; C-terminal -COOH; Ci, Cii, Ciii cyclised on TATA
B12: BCY10934 (peptide)
peptide: SDKCSAGWLTMCKQLNLCPS
modifications: N-terminal [Ac]; Ci, Cii, Ciii cyclised on TATA
B13: BCY3835 (peptide)
peptide: SDKCSAGWLTMCQKLHLCA
modifications: Ci, Cii, Ciii cyclised on TATA
B14: BCY10067 (peptide)
peptide: SDKCSAGWLTMCLKLHLCA
modifications: Ci, Cii, Ciii cyclised on TATA
B15: BCY11832 (peptide)
peptide: SDKCSAGWLTMCQKLHLC
modifications: N-terminal Ac; Ci, Cii, Ciii cyclised on TATA
B16: BCY10949 (peptide)
peptide: SDKCSAGWLTMCEKLHLC
modifications: N-terminal [Ac]; Ci, Cii, Ciii cyclised on TATA
B17: BCY10947 (peptide)
peptide: SDKCSAEWLTMCQKLHLC
modifications: N-terminal [Ac]; Ci, Cii, Ciii cyclised on TATA
B18: BCY10951 (peptide)
peptide: SEKCSAGWLTMCQKLHLC
modifications: N-terminal [Ac]; Ci, Cii, Ciii cyclised on TATA
B19: BCY10076 (peptide)
peptide: SDRCSAGWLTMCQKLHLC
modifications: N-terminal [Ac]; Ci, Cii, Ciii cyclised on TATA
B20: BCY10078 (peptide)
peptide: SDKCSAGWLTMCQRLHLC
modifications: N-terminal [Ac]; Ci, Cii, Ciii cyclised on TATA
B21: BCY10940 (peptide)
peptide: DKCSAGWLTMCKQLNLCPSH
modifications: N-terminal [Ac]; Ci, Cii, Ciii cyclised on TATA
B22: BCY10065 (peptide)
peptide: SDKCSAGWLTMCVQLGLCA
modifications: Ci, Cii, Ciii cyclised on TATA
B23: BCY519 (peptide)
peptide: ACSWSWLTMCQKLHLCA
modifications: Ci, Cii, Ciii cyclised on TATA
notes: also called 73-07-00-N002
B24: BCY10051 (peptide)
peptide: SDKCSAGWLTMCQKLHLCA
modifications: N-terminal [Ac]; [dS] = D-Ser at chain position 1; Ci, Cii, Ciii cyclised on TATA
B25: BCY10075 (peptide)
peptide: SDKCSAGWLTMCQKLHLCA
modifications: N-terminal [Ac]; Ci, Cii, Ciii cyclised on TATA
B26: BCY10938 (peptide)
peptide: SDKCSAGWLTMCKQLNLC
modifications: N-terminal [Ac]; C-terminal -COOH; Ci, Cii, Ciii cyclised on TATA
B27: BCY10937 (peptide)
peptide: SDKCSAGWLTMCKQLNLCP
modifications: N-terminal [Ac]; C-terminal -COOH; Ci, Cii, Ciii cyclised on TATA
B28: BCY10942 (peptide)
peptide: CSAGWLTMCKQLNLCPSH
modifications: N-terminal [Ac] on Ci; Ci, Cii, Ciii cyclised on TATA
B29: BCY10941 (peptide)
peptide: KCSAGWLTMCKQLNLCPSH
modifications: N-terminal [Ac]; Ci, Cii, Ciii cyclised on TATA

Target: human PD-L1 overexpressed on CHO-K1 cells (human) (UniProt Q9NZQ7)
Assay: cell-based or functional assay

| EC50 (nM), PD-1/PD-L1 Blockade Bioassay (NFAT-luciferase fold induction in PD-1 Jurkat cells) [nM] | Molecule |
| --- | --- |
| 2.46 | PD-L1 monoclonal antibody (clone MIH1, Invitrogen catalog #16598382) |

Target: human PD-L1 overexpressed on CHO-K1 cells (human, UniProt Q9NZQ7 19-290)
Assay: cell-based or functional assay

| EC50 (nM), PD-1/PD-L1 Blockade Bioassay (NFAT-luciferase fold induction in PD-1 Jurkat cells) [nM] | Molecule |
| --- | --- |
| 211 | B1 |
| 196 | B2 |

Target: T1, human PD-L1 (human, UniProt Q9NZQ7 19-238, limits assumed)
T1 construct: also called hPD-L1; Programmed cell death 1 ligand 1
Assay: FP, Table 1 'Human Direct Binding Assay'
Procedure: Measurements were conducted on a BMG PHERAstar FS equipped with an “FP 485 520 520” optic module which excites at 485 nm and detects parallel and perpendicular emission at 520 nm. The PHERAstar FS was set at 25° C. with 200 flashes per well and a positioning delay of 0.1 second, with each well measured at 5 to 10 minute intervals for 60 minutes. The gain used for analysis was determined for each tracer at the end of the 60 minutes where there was no protein in the well. […] “Lig” was a defined value of the concentration of tracer used.

| Kd [nM] | Molecule |
| --- | --- |
| 162 | B3 |
| 311 | B4 |
| 494 | B5 |
| 176 | B6 |
| 356 | B7 |

Target: T1, human PD-L1
Assay: FP competition vs FI-G-Sar5-…
Procedure: Peptides were diluted to an appropriate concentration in assay buffer as described in the direct binding assay with a maximum of 5% DMSO, then serially diluted 1 in 2. […] Measurements were conducted as for the direct binding assay, however the gain was determined prior to the first measurement. Data analysis was in Systat Sigmaplot version 12.0 where the mP values were fit to a user defined cubic equation to generate a Ki value: […]

| Ki [nM] | Molecule |
| --- | --- |
| 112 | B3 |
| 118 | B4 |
| 440 | B5 |
| 243 | B6 |
| 201 | B7 |

Target: Recombinant mouse PD-L1 (R&D systems), biotinylated (mouse) (UniProt Q9EP73)
Assay: SPR (Biacore), biotinylated mouse PD-L1 on streptavidin chip

| Kd [nM] | Molecule |
| --- | --- |
| 117 | BCY8938 (peptide) |

Target: T2, Recombinant human PD-L1 (Sino Biologicals or R&D systems), biotinylated (human, UniProt Q9NZQ7 19-238, limits assumed, biotinylated with EZ-Link Sulfo-NHS-LC-LC-Biotin)
T2 construct: captured on a streptavidin CM5 chip for SPR; also called human PD-L1 protein; Biotinylated PD-L1
Assay: SPR (Biacore), biotinylated PD-L1 on streptavidin chip
Procedure: Biacore experiments were performed to determine kₐ) (M⁻¹s⁻¹), kd (s⁻¹), KD (nM) values of monomeric peptides binding to human PD-L1 protein. […] The protein was desalted to remove uncoupled biotin using spin columns into PBS. For analysis of binding, a Biacore 3000 instrument was used utilizing a CM5 sensor chip (GE Healthcare). Streptavidin was immobilized on the chip using standard amine-coupling chemistry at 25° C. with HBS-N (10 mM HEPES, 0.15 M NaCl, pH 7.4) as the running buffer. The carboxymethyl dextran surface was activated with a 12 min injection of a 1:1 ratio of 0.4 M 1-ethyl-3-(3-dimethylaminopropyl) carbodiimide hydrochloride (EDC)/0.1 M N-hydroxy succinimide (NHS) at a flow rate of 10 μl/min. For capture of streptavidin, protein was diluted to 0.1 mg/ml in 10 mM sodium acetate (pH 4.5) and captured by injecting 70 μl onto the activated chip surface. Residual activated groups were blocked with a 7 min injection of 1 M ethanolamine (pH 8.5). Biotinylated PD-L1 stock was diluted 1:100 in HBS-N and captured on one flow cell at 5 μl/min to a level of 1000-1300 RU. Buffer was changed to PBS/0.05% Tween 20 and a dilution series of the peptides was prepared in this buffer with a final DMSO concentration of 0.5%. The top concentrations were 200 nM or 500 nM with 6 2-fold dilutions. The SPR analysis was run at 25° C. at a flow rate of Flow rate 50 μl/min with 60 seconds association and 400 seconds disassociation. Data were corrected for DMSO excluded volume effects. All data were double-referenced for blank injections and reference surface using standard processing procedures and data processing and kinetic fitting were performed using Scrubber software, version 2.0c (Biologic Software). Data were fitted using mass transport model allowing for mass transport effects where appropriate.

| Kd [nM] | Molecule |
| --- | --- |
| 7.76 | B8 |
| 24.1 | B9 |
| 291 | B3 |
| 14.9 | B10 |
| 933 | B5 |
| 13 | B11 |
| 10.9 | B12 |
| 3.39 | B1 |
| 30.1 | B13 |
| 5.51 | B14 |
| 442 | B7 |
| 68.4 | B15 |
| 18.7 | B16 |
| 31.1 | B17 |
| 7.28 | B18 |
| 14.5 | B19 |
| 12.2 | B20 |
| 2.32 | B21 |
| 34.1 | B22 |
| 60.9 | B23 |
| 20.7 | B24 |
| 3.1 | B2 |
| 28.6 | B25 |
| 12.2 | B26 |
| 5.03 | B27 |
| 24.1 | B28 |
| 3.67 | B29 |
